# Measurements taken from PMC11911400, “Mechanism of ASF1 engagement by CDAN1” (Nature Communications, 2025).
# T1: Strep-tagged CDAN1 (ST-CDAN1), wildtype (human, UniProt Q8IWY9 1-1227)
# T1 construct: Codanin-1 (CDAN1), human, 1227 residues; cDNA from Horizon Discovery/Dharmacon, its point mutation S421F corrected; same construct used in Expi293 and in Flp-In 293 T-REx cells; dimer by SEC-MALS and cryo-EM; also called Strep-CDAN1; WT CDAN1; source: Expi293, transiently transfected, in lysate and purified in complexes (anti-FLAG, Strep-Tactin); Flp-In 293 T-REx, transiently transfected, in …
# T1 sequence: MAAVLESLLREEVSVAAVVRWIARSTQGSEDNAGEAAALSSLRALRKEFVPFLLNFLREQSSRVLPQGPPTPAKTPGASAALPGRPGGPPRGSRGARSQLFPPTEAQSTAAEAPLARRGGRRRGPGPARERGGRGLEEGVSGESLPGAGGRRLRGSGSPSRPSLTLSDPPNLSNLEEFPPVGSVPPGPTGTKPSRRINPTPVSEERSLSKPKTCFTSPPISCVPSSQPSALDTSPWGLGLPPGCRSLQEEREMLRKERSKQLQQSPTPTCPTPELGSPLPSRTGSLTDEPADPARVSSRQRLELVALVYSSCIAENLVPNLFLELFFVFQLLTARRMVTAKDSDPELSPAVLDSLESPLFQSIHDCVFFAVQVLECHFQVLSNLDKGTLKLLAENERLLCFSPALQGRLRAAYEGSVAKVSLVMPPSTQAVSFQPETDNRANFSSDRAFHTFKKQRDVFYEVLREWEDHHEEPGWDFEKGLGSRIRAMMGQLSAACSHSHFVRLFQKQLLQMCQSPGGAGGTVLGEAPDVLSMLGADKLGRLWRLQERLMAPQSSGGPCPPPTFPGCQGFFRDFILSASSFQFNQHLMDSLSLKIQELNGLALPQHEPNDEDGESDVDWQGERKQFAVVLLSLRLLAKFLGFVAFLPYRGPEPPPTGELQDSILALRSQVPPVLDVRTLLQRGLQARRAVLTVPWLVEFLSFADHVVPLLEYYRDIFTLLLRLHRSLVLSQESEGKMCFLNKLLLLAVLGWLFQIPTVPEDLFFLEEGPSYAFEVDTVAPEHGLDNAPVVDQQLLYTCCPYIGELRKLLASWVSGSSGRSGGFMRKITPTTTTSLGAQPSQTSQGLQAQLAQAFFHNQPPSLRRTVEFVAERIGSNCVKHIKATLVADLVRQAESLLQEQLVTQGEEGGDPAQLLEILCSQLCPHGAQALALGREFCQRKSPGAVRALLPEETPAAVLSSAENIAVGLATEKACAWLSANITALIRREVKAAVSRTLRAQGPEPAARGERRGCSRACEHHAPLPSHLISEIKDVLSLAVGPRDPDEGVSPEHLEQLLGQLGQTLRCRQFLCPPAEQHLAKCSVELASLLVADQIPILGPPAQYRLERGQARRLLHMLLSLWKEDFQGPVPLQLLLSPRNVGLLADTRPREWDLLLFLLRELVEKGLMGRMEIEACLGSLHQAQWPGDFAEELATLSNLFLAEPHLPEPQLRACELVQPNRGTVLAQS
# Biological target: T1, Strep-tagged CDAN1 (ST-CDAN1), wildtype
# Test: SEC-MALS; 200 µg of each purified complex at 5 µM on SRT SEC-300 column, PBS pH 7.4 with 1 mM DTT; DAWN HELEOS II; dn/dc 0.185
# Details: both partners purified
row,stoichiometry N,Binder
1,3 ASF1A per two CDAN1,"HA-tagged ASF1A (natural protein, ASF1A (Anti-Silencing Function 1 A), human; cDNA synthesized by IDT; also called HA-ASF1A; ASF1A-1; source: Expi293, transiently transfected, in lysate and purified in the C:C:A complex (anti-FLAG, Strep-Tactin); not shown: 3xHA, N-terminal, kept) not shown"
2,3 ASF1A per two CDAN1,"FLAG-tagged ASF1A (F-ASF1A) (natural protein, ASF1A (Anti-Silencing Function 1 A), human; cDNA synthesized by IDT; same construct used in Expi293 and in Flp-In 293 T-REx cells; also called FLAG-ASF1A; source: Expi293, transiently transfected, in lysate and purified in the C:A complex (anti-FLAG, Strep-Tactin); Flp-In 293 T-REx, co-transfected, in lysate; not shown: 3xFLAG, N-terminal, kept) not shown"
